## Yeast mating assay 2: variants of the scFv Ab-95

Values reported by Engelhart et al. 2022, doi:10.1038/s41597-022-01779-4 (FLAb copy).

The target is the same throughout: PDVDLGDISGINAS, from the HR2 region of SARS-CoV-2 spike.

Parent scFv Ab-95: VH joined to VL by a 15-residue (Gly4Ser)3 linker. Changes lie in the light chain CDRs alone.
VH: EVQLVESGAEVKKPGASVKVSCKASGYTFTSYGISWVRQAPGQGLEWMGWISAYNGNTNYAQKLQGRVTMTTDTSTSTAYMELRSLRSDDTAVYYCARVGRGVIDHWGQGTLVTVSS
VL: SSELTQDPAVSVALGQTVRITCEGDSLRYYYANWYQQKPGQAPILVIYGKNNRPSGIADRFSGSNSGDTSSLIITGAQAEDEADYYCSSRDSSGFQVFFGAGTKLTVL

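Phage display of a naive human antibody library on the peptide gave the parent. The library (AAYL52) carries one to three amino acid substitutions per variant, with no insertions or deletions. The assay is AlphaSeq: two haploid yeast populations carry antibody and antigen on their surface. After mating in shaken culture at 30 °C for 16 h, diploids were selected and their barcode pairs sequenced. Read counts were normalised to the haploid input and turned into Kd by a linear fit to BCL2-family pairs of known affinity, for each replicate. Each pool was mated in three replicate cultures.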

Each variant is given by its three light chain CDRs, as the data file delimits them; those of the parent are EGDSLRYYYAN, GKNNRPS, SSRDSSGFQVF. Values are log10 of the apparent Kd in nM; lower means stronger binding. A pair that was not seen in that replicate is written "nd"; this usually means weak binding, but a binder can also be missed. Parent in this assay: reference entry 2.31, copy in this library 2.25. Three control strains display no target. For library AAYL52, 28% of the pairings with them gave a signal, with a median of 3.91 and one signal in twenty below 2.90, so weak values seen in few replicates may be background. Also given: how often the same scFv was detected with the empty control strains.

With EGDSLRYSYAN / GKNNRPS / SSRDSPGYQVF the result was 1.65, 1.27, 1.07 (controls 2 of 9).
With EGDSLRYYYAN / GKNNRPS / WSRDSSEFKVF the result was 2.73, 3.98, 3.13 (controls 5 of 9).
With EGDSLRYYYAN / GKNNMPS / SSRDSSAFQVF the result was 3.40, 4.42, 3.16 (controls 3 of 9).
With EGGSLRYTYAN / GKNNRPS / SSRDSSGFQVF the result was 1.48, 1.43, 0.80 (controls 2 of 9).
With EDDSQRYYYAN / GKPNRPS / SSRDSSGFQVF the result was nd, 4.32, nd (controls 1 of 9).
With EGDSLRGYYAN / GKNNRPS / SSRDSSGEQAF the result was 3.07, 3.49, 3.13 (controls 0 of 9).
With ENDSLRYYYAN / NKNNRPC / SSRDSSGFQVF the result was 3.19, 4.89, nd (controls 4 of 9).
With EGTSLRYYYAN / PWNNRPS / SSRDSSGFQVF the result was 4.13, 4.04, nd (controls 4 of 9).
With EGDSLRYDEAN / GKNNRPS / SSRDNSGFQVF the result was 2.41, 2.93, 2.55 (controls 3 of 9).
With EGDSLPYYDAN / GKNNRPS / SSRDSSGFQIF the result was 2.91, 4.55, nd (controls 3 of 9).
With EGDSHRYYYAN / GKNNRIS / SSKDSSGFQVF the result was 3.99, nd, nd (controls 3 of 9).
With EGDSLRNYYAN / GKYNRPS / SSRDSSGFQVF the result was 2.24, 1.98, 1.99 (controls 5 of 9).
With EGPSLTYYYAN / GKNNRPS / SSRDSSGFQVF the result was 1.77, 1.84, 1.76 (controls 6 of 9).
With EGQSRRYYYAN / GKNNRPS / CSRDSSGFQVF the result was 3.41, nd, nd (controls 2 of 9).
With EGDSLRYYYAN / GKKNRPS / SSRDSSGFQKG the result was 3.62, nd, nd (controls 1 of 9).
With EGDSLRLYYAH / GKNNRPS / SSRNSSGFQVF the result was 4.31, 3.70, 3.58 (controls 2 of 9).
With EGDSLRYYEAN / GKNLRPS / SSRISSGFQVF the result was 1.93, 1.58, 1.25 (controls 1 of 9).
With EGDSLRYYYAN / GKNNRAS / SVRDASGFQVF the result was 2.33, 2.09, 1.85 (controls 1 of 9).
With LGDSLRYYYAN / GKNVRPS / SSRDSSGIQVF the result was nd, nd, nd (controls 1 of 9).
With EGDDLRYYYAR / GKNNRHS / SSRDSSGFQVF the result was nd, nd, nd (controls 1 of 9).
With EGDSLRYYYAN / GMNNRPS / SSRDTSSFQVF the result was 2.42, 2.82, 1.40 (controls 1 of 9).
With EGGSLRYGYAN / GKNNRPS / SSRDSSGFQVG the result was 2.11, 1.87, 1.70 (controls 6 of 9).
With EDDSLRYYYAN / GKNNRPS / SSTDSSSFQVF the result was nd, 4.43, 4.37 (controls 3 of 9).
With EGDYLRYYYAN / GKNERPS / SSRDSSGFQTF the result was 3.57, 4.10, 3.95 (controls 4 of 9).
With EGFSLRYCYAN / GCNNRPS / SSRDSSGFQVF the result was 3.16, nd, 4.22 (controls 0 of 9).
With EGDSLRYDYAN / GKNNDPS / SSRDISGFQVF the result was nd, nd, nd (controls 3 of 9).
With EGVSLRYYYCN / GKNNRPS / SSRPSSGFQVF the result was 3.14, 4.28, 3.18 (controls 3 of 9).
With EGESLRYYYAN / GKNQRPS / SSRDSTGFQVF the result was 1.43, 1.56, 1.03 (controls 1 of 9).
With EGDSLRYGYAN / GANNRPN / SSRDSSGFQVF the result was 1.33, 1.64, 1.13 (controls 1 of 9).
With EGDSLRYYYAN / GKNNRPS / QSRDSSMFIVF the result was 3.72, 3.45, 3.25 (controls 2 of 9).
With PGDSLGYYYAN / GKNNRPT / SSRDSSGFQVF the result was nd, 3.43, 4.01 (controls 0 of 9).
With EGDSLRYYYAN / GKLNRPS / RSRDSSGFVVF the result was 4.40, 5.89, nd (controls 6 of 9).

The 3 strongest on average among those seen in every replicate, once more:

Variant EGGSLRYTYAN / GKNNRPS / SSRDSSGFQVF showed 1.48, 1.43, 0.80 (controls 2 of 9).
Variant EGDSLRYSYAN / GKNNRPS / SSRDSPGYQVF showed 1.65, 1.27, 1.07 (controls 2 of 9).
Variant EGESLRYYYAN / GKNQRPS / SSRDSTGFQVF showed 1.43, 1.56, 1.03 (controls 1 of 9).